Results: PMC12720098, “Prolintane analogs as hybrid monoamine transporter ligands: Structural determinants and species differences” (The Journal of Biological Chemistry, 2025)
Counter-ions that a name gives are not always drawn. Like-named read-outs stand apart in the source and are kept apart here.

Chains of the proteins cited; added tags and fusions are not shown.
UniProt P31652, whole entry: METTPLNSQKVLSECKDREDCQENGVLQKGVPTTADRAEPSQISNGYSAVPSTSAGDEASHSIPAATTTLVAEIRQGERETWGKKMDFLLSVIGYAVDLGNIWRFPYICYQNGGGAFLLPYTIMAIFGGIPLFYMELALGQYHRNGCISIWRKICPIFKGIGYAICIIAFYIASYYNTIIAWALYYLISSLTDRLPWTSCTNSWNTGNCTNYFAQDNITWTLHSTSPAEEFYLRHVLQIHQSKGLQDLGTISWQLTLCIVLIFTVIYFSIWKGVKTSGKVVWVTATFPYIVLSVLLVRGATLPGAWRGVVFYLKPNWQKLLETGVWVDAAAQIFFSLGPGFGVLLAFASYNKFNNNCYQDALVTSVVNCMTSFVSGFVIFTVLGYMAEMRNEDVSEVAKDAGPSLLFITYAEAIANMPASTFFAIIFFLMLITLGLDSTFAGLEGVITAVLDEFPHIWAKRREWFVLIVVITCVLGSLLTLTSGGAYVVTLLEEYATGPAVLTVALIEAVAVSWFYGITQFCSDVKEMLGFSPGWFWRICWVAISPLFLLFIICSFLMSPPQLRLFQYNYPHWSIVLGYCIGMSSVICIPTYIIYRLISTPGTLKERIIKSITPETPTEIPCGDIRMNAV

Molecular target: rSERT (Rattus norvegicus, UniProt P31652)
Type: cell-based
Design: expressed in transfected cells
Details: for Mean diff, rSERT efflux ± Mon (Šídák's multiple comparisons test): drug alone vs drug + monensin (Mon)

Question: Which results are given for `Fc1ccc([C@@H]2CCNC[C@H]2COc2ccc3c(c2)OCO3)cc1` [Paroxetine, paroxetine HCl]?
Answer: Mean diff, rSERT efflux ± Mon (Šídák's multiple comparisons test) (Row 1 (time fraction)): 0.1442; Mean diff, rSERT efflux ± Mon (Šídák's multiple comparisons test) (Row 2 (time fraction)): -0.02622; Mean diff, rSERT efflux ± Mon (Šídák's multiple comparisons test) (Row 3 (time fraction)): -0.1814; Mean diff, rSERT efflux ± Mon (Šídák's multiple comparisons test) (Row 4 (time fraction)): -0.04233; Mean diff, rSERT efflux ± Mon (Šídák's multiple comparisons test) (Row 5 (time fraction)): -0.6121; Mean diff, rSERT efflux ± Mon (Šídák's multiple comparisons test) (Row 6 (time fraction)): -1.044; Mean diff, rSERT efflux ± Mon (Šídák's multiple comparisons test) (Row 7 (time fraction)): -1.227; Mean diff, rSERT efflux ± Mon (Šídák's multiple comparisons test) (Row 8 (time fraction)): -1.361; Mean diff, rSERT efflux ± Mon (Šídák's multiple comparisons test) (Row 9 (time fraction)): -2.004; Mean diff, rSERT efflux ± Mon (Šídák's multiple comparisons test) (Row 10 (time fraction)): -1.579; Mean diff, rSERT efflux ± Mon (Šídák's multiple comparisons test) (Row 11 (time fraction)): -1.619; Mean diff, rSERT efflux ± Mon (Šídák's multiple comparisons test) (Row 12 (time fraction)): -1.624; [3H]5-HT releasing profile in cells expressing rSERT (superfusion, HEK293 cells, with and without monensin): almost identical pseudo-efflux releasing profile
